Among the data in US9440982B2 (Eolas Therapeutics, Inc., priority 2012, dated 2016) are IC50 values, retold here.

By UniProt entry, the sequences of proteins in these tests, tags left out.
UniProt O43613, whole entry: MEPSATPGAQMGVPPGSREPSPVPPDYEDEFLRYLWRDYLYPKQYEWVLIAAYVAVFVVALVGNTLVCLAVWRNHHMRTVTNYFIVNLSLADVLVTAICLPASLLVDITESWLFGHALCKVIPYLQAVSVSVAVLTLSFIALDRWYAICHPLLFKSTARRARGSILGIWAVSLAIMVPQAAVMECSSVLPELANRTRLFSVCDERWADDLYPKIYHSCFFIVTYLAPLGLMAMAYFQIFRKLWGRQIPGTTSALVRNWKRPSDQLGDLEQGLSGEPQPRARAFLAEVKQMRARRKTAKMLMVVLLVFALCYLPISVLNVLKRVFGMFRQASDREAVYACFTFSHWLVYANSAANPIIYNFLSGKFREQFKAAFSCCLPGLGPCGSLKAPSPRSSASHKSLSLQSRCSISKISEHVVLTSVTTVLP
UniProt O43614, whole entry: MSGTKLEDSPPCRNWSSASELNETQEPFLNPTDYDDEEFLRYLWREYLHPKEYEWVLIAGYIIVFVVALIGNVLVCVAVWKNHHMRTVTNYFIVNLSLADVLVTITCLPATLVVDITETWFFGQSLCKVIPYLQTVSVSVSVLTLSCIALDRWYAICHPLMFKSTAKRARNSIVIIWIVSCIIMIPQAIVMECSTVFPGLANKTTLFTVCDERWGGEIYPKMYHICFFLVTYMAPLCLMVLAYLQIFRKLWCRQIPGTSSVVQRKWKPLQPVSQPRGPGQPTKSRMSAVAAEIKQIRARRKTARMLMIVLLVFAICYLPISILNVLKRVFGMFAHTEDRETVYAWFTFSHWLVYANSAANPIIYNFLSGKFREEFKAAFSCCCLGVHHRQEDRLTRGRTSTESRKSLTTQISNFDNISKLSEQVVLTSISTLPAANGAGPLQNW

Where two headings read alike, the source gives them in different places.

One assay has as its target T1, OX1 (Homo sapiens, UniProt O43613).
T1 construct: expressed in transfected cells; host or cells: CHO (CHO-OX1, kept under selection antibiotic)
Description: Orexin receptor cell-based functional assay, [Ca2+]i by FLIPR, CHO-OX1 cells. The following applies: Table 2, EC90 of OXA, read-out: IC50 Bioactivity OX1.

A further assay deals with T2, OX2 (Homo sapiens, UniProt O43614).
T2 construct: expressed in transfected cells; host or cells: CHO (CHO-OX2, kept under selection antibiotic)
As to the kind of experiment: Orexin receptor cell-based functional assay, [Ca2+]i by FLIPR, CHO-OX2 cells. The following applies: CHO-OX2 cells, EC90 of OXA.

Where [1] appears, read: Table 2, read-out: IC50 Bioactivity OX2.
[2] abbreviates: [Ca2+]i by FLIPR, antagonist dose-range 0.1 nM-10 μM, read-out: OX2.

With `Cc1nc(-c2ccccc2)c(C(=O)N2CC(F)(F)CCC2CNC(=O)c2cccc3cccnc23)s1` (racemic) [Example 34, N-((5,5-Difluoro-1-(2-methyl-4-phenylthiazole-5-carbonyl)piperidin-2-yl)methyl)quinoline-8-carboxamide], the IC50 on OX1 and at OX2 (setting [1]) was 5 nM throughout.

For the compound `Cc1ccc(-c2cncnc2)c(C(=O)N2CCC[C@@H](C)[C@H]2CNc2ccc(C(F)(F)F)cn2)c1` (racemic) [Example 107, rac-cis-(3-Methyl-2-(((5-(trifluoromethyl)pyridin-2-yl)amino)methyl)piperidin-1-yl) (5-methyl-2-(pyrimidin-5-yl)phenyl)methanone], the IC50 on OX2 (setting [1]) is > 10000 nM.

In the case of `Cc1ccc(-n2nccn2)c(C(=O)N2CCC(F)(F)C[C@H]2CNc2ccc(Cl)cn2)c1` [Example A210, (S)-(2-(((5-Chloropyridin-2-yl)amino)methyl)-4,4-difluoropiperidin-1-yl)(5-methyl-2-(2H-1,2,3-triazol-2-yl)phenyl)methanone], at OX2 (setting [2]), the IC50 is > 5000 nM.

`O=C(NC[C@@H]1C[C@@H](F)CN1C(=O)c1ccccc1-c1ccccc1)c1cccc2cccnc12` [Example 128, N-(((2S,4R)-1-(Biphenylcarbonyl)-4-fluoropyrrolidin-2-yl)methyl)quinoline-8-carboxamide]: the IC50 on OX2 (setting [1]) came out at 30 nM.

`Cc1nc(C(=O)N2CC(F)(F)CCC2CNC(=O)c2cccc3cccnc23)c(-c2cccc(F)c2)s1` (racemic) [Example 52, rac-N-((5,5-Difluoro-1-(5-(3-fluorophenyl)-2-methylthiazole-4-carbonyl)piperidin-2-yl)methyl)quinoline-8-carboxamide]: at OX2 (setting [1]), the IC50 was determined as 10 nM.

As for `Cc1ccc(-n2nccn2)c(C(=O)N2CCC[C@@H](C)[C@H]2CNc2ccc(C#N)cn2)c1` [Example A127, 6-((((2S,3R)-3-Methyl-1-(5-methyl-2-(2H-1,2,3-triazol-2-yl)benzoyl)piperidin-2-yl)methyl)amino)nicotinonitrile], the IC50 on OX2 (setting [2]) was > 5000 nM.
